Assay results published in US20020192736A1, “Assay of peroxidase activity” (Pierce Chemical Company, priority 2001, published 2002).
“And” between values parts separate entries of the source, which are not always exact repeats. Identical values can stand only once.

Protein sequences, listed by entry. Tags and fused reporters are not part of them. Residues count along the entry.
UniProt P00433, 31-338 limits assumed: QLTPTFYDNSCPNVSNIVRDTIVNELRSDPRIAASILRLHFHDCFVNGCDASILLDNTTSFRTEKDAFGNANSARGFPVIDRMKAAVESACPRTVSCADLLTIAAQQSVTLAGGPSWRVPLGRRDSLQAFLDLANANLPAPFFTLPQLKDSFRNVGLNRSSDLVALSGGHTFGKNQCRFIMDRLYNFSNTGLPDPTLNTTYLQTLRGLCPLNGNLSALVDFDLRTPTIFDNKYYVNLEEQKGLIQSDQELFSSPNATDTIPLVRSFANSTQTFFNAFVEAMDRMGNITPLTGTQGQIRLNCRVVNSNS

Target: horseradish peroxidase labeled streptavidin (SA-HRP) (Armoracia rusticana, UniProt P00433)
Assay: Dot blot assay on nitrocellulose membrane, film densitometry (relative intensity)
Format: biochemical

Sodium phenothiazine 10-yl propane sulfonate [Azine Enhancer 1c]
Net Relative Intensity at 100 pg SA-HRP: 2,356,176 and 2,314,240
Net Relative Intensity at 1000 pg SA-HRP: 8,426,960 and 8,763,560
